In this test the target is PDE4A1A (Homo sapiens, UniProt P27815).

The chains behind the UniProt entries cited, without tags or fusion partners. Residues count along the entry.
UniProt P27815, 1-647 isoform P27815-4: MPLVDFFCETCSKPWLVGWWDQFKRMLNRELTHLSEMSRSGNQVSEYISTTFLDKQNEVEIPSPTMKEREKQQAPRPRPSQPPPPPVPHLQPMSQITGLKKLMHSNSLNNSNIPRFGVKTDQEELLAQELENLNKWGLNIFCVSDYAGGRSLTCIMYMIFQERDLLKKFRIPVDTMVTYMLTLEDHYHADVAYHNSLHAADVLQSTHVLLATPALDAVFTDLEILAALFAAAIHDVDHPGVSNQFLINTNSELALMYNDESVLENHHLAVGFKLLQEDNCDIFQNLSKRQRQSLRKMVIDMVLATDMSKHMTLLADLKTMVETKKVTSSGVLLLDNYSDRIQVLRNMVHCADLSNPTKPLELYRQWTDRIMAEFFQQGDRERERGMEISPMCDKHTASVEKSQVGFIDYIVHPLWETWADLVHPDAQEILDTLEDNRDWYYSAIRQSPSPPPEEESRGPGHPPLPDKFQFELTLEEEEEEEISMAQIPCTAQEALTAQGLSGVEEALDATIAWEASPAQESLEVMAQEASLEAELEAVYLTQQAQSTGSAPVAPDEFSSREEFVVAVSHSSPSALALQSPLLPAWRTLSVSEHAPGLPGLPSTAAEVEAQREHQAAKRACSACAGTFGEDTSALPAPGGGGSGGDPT

As a reminder, the IC50 is the point on the concentration scale where inhibition reaches its midpoint.

On to `COc1ccc(OC)c(-c2nnc3n2N=C(c2ccc(OC)c(O[C@@H]4CCOC4)c2)CS3)c1` [Compound 10, (R)-3-(2,5-dimethoxyphenyl)-6-(4-methoxy-3-(tetrahydrofuran-3-yloxy)phenyl)-7H-[1,2,4]-triazolo[3,4-b][1,3,4]thiadiazine], for which inhibition was half-maximal at 0.26 nM (IC50). This lies in the sub-nanomolar range.

(Values after US20110112079A1, “PHOSPHODIESTERASE INHIBITORS” (priority 2008, published 2011).)
